Permeability data for macrocyclic peptides

PAMPA measures passive passage through an artificial lipid membrane. Values are log10 P with P in cm/s, so -5 is more permeable than -7.

Listed for CC(=O)N1CCC[C@H]1C(=O)N[C@@H]1C(=O)N(C)[C@H](CC(C)C)C(=O)N(C)[C@@H](CC(C)C)C(=O)N(C)[C@@H](CC(C)C)C(=O)N(C)[C@H](CC(C)C)C(=O)N(C)[C@@H](C)C(=O)N[C@@H](CC(C)C)C(=O)N2CCC[C@@H]2C(=O)O[C@@H]1C: PAMPA -5.09 (log10 cm/s). Listed for CC(=O)N1CCC[C@H]1C(=O)N(C)[C@H](CC(C)C)C(=O)N[C@@H]1C(=O)N[C@@H](CC(C)C)C(=O)N[C@H](CC(C)C)C(=O)N[C@H](CC(C)C)C(=O)N[C@H](C)C(=O)N[C@H](CC(C)C)C(=O)N2CCC[C@H]2C(=O)O[C@@H]1C: PAMPA -6.60 (log10 cm/s). Listed for CC(=O)N1CCC[C@H]1C(=O)N(C)[C@@H](CC(C)C)C(=O)N[C@@H]1C(=O)N[C@H](CC(C)C)C(=O)N[C@H](CC(C)C)C(=O)N[C@H](CC(C)C)C(=O)N[C@@H](C)C(=O)N[C@@H](CC(C)C)C(=O)N2CCC[C@H]2C(=O)O[C@@H]1C: PAMPA -6.77 (log10 cm/s). CC(=O)N1CCC[C@@H]1C(=O)N(C)[C@@H](CC(C)C)C(=O)N[C@@H]1C(=O)N[C@H](CC(C)C)C(=O)N(C)[C@@H](CC(C)C)C(=O)N[C@@H](CC(C)C)C(=O)N(C)[C@@H](C)C(=O)N[C@H](CC(C)C)C(=O)N2CCC[C@H]2C(=O)O[C@@H]1C has PAMPA -5.43 (log10 cm/s). CC(=O)N[C@@H]1C(=O)N2CCC[C@H]2C(=O)N(C)[C@H](CC(C)C)C(=O)N(C)[C@@H](CC(C)C)C(=O)N(C)[C@H](CC(C)C)C(=O)N(C)[C@H](CC(C)C)C(=O)N(C)[C@H](C)C(=O)N[C@@H](CC(C)C)C(=O)N2CCC[C@@H]2C(=O)O[C@@H]1C is reported with PAMPA -4.98 (log10 cm/s).

CC(=O)N1CCC[C@H]1C(=O)N(C)[C@@H](CC(C)C)C(=O)N[C@@H]1C(=O)N(C)[C@H](CC(C)C)C(=O)N(C)[C@H](CC(C)C)C(=O)N[C@@H](CC(C)C)C(=O)N(C)[C@H](C)C(=O)N[C@@H](CC(C)C)C(=O)N2CCC[C@H]2C(=O)O[C@@H]1C has PAMPA -5.45 (log10 cm/s). For CC(=O)N1CCC[C@H]1C(=O)N(C)[C@H](CC(C)C)C(=O)N[C@@H]1C(=O)N(C)[C@@H](CC(C)C)C(=O)N(C)[C@@H](CC(C)C)C(=O)N[C@@H](CC(C)C)C(=O)N[C@@H](C)C(=O)N[C@H](CC(C)C)C(=O)N2CCC[C@H]2C(=O)O[C@@H]1C the data give PAMPA -6.72 (log10 cm/s). CC(=O)N1CCC[C@@H]1C(=O)N(C)[C@H](CC(C)C)C(=O)N[C@@H]1C(=O)N(C)[C@H](CC(C)C)C(=O)N(C)[C@@H](CC(C)C)C(=O)N[C@@H](CC(C)C)C(=O)N[C@@H](C)C(=O)N[C@H](CC(C)C)C(=O)N2CCC[C@@H]2C(=O)O[C@@H]1C has PAMPA -5.93 (log10 cm/s). CC(=O)N1CCC[C@H]1C(=O)N[C@@H]1C(=O)N(C)[C@H](CC(C)C)C(=O)N[C@H](CC(C)C)C(=O)N[C@@H](CC(C)C)C(=O)N[C@@H](CC(C)C)C(=O)N(C)[C@@H](C)C(=O)N[C@@H](CC(C)C)C(=O)N2CCC[C@@H]2C(=O)O[C@@H]1C has PAMPA -6.00 (log10 cm/s). CC(=O)N1CCC[C@H]1C(=O)N[C@@H]1C(=O)N(C)[C@H](CC(C)C)C(=O)N[C@H](CC(C)C)C(=O)N[C@H](CC(C)C)C(=O)N(C)[C@@H](CC(C)C)C(=O)N(C)[C@@H](C)C(=O)N[C@@H](CC(C)C)C(=O)N2CCC[C@@H]2C(=O)O[C@@H]1C is reported with PAMPA -6.20 (log10 cm/s).

CC(=O)N1CCC[C@@H]1C(=O)N(C)[C@H](CC(C)C)C(=O)N[C@@H]1C(=O)N[C@@H](CC(C)C)C(=O)N[C@H](CC(C)C)C(=O)N[C@H](CC(C)C)C(=O)N[C@@H](C)C(=O)N[C@H](CC(C)C)C(=O)N2CCC[C@H]2C(=O)O[C@@H]1C is reported with PAMPA -7.10 (log10 cm/s). For CC(=O)N1CCC[C@@H]1C(=O)N(C)[C@@H](CC(C)C)C(=O)N[C@@H]1C(=O)N(C)[C@@H](CC(C)C)C(=O)N(C)[C@@H](CC(C)C)C(=O)N[C@@H](CC(C)C)C(=O)N(C)[C@H](C)C(=O)N[C@@H](CC(C)C)C(=O)N2CCC[C@@H]2C(=O)O[C@@H]1C the data give PAMPA -5.41 (log10 cm/s). The entry for CC(=O)N1CCC[C@@H]1C(=O)N(C)[C@@H](CC(C)C)C(=O)N[C@@H]1C(=O)N(C)[C@@H](CC(C)C)C(=O)N(C)[C@@H](CC(C)C)C(=O)N[C@@H](CC(C)C)C(=O)N(C)[C@H](C)C(=O)N[C@H](CC(C)C)C(=O)N2CCC[C@@H]2C(=O)O[C@@H]1C lists PAMPA -5.34 (log10 cm/s). For CC(=O)N1CCC[C@@H]1C(=O)N(C)[C@H](CC(C)C)C(=O)N[C@@H]1C(=O)N[C@H](CC(C)C)C(=O)N(C)[C@@H](CC(C)C)C(=O)N[C@@H](CC(C)C)C(=O)N[C@@H](C)C(=O)N[C@H](CC(C)C)C(=O)N2CCC[C@@H]2C(=O)O[C@@H]1C the data give PAMPA -6.53 (log10 cm/s). The entry for CC(=O)N1CCC[C@H]1C(=O)N(C)[C@@H](CC(C)C)C(=O)N[C@@H]1C(=O)N[C@H](CC(C)C)C(=O)N(C)[C@H](CC(C)C)C(=O)N[C@H](CC(C)C)C(=O)N(C)[C@H](C)C(=O)N[C@@H](CC(C)C)C(=O)N2CCC[C@@H]2C(=O)O[C@@H]1C lists PAMPA -5.29 (log10 cm/s).

For CC(=O)N1CCC[C@H]1C(=O)N[C@@H]1C(=O)N(C)[C@H](CC(C)C)C(=O)N[C@@H](CC(C)C)C(=O)N[C@H](CC(C)C)C(=O)N[C@@H](CC(C)C)C(=O)N(C)[C@H](C)C(=O)N[C@@H](CC(C)C)C(=O)N2CCC[C@@H]2C(=O)O[C@@H]1C the data give PAMPA -6.03 (log10 cm/s).

The 2 lowest values of PAMPA among the entries above:

The entry for CC(=O)N1CCC[C@@H]1C(=O)N(C)[C@H](CC(C)C)C(=O)N[C@@H]1C(=O)N[C@@H](CC(C)C)C(=O)N[C@H](CC(C)C)C(=O)N[C@H](CC(C)C)C(=O)N[C@@H](C)C(=O)N[C@H](CC(C)C)C(=O)N2CCC[C@H]2C(=O)O[C@@H]1C lists PAMPA -7.10 (log10 cm/s).
The entry for CC(=O)N1CCC[C@H]1C(=O)N(C)[C@@H](CC(C)C)C(=O)N[C@@H]1C(=O)N[C@H](CC(C)C)C(=O)N[C@H](CC(C)C)C(=O)N[C@H](CC(C)C)C(=O)N[C@@H](C)C(=O)N[C@@H](CC(C)C)C(=O)N2CCC[C@H]2C(=O)O[C@@H]1C lists PAMPA -6.77 (log10 cm/s).

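The data file gives no further conditions (lipid, pH, time, direction or concentration), and values from different papers need not be comparable. The list need not hold all peptides of the study. Peptides that the database sets to -10, its floor, are left out.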

Values of Kelly et al. 2021, doi:10.1021/jacs.0c06115, as listed in CycPeptMPDB.